Assay results from PMC6678253, “The 1,3,5-Triazine Derivatives as Innovative Chemical Family of 5-HT6 Serotonin Receptor Agents with Therapeutic Perspectives for Cognitive Impairment” (International Journal of Molecular Sciences, 2019).

Settings: 200 µM, PBS pH 7.4, 5 h, room temperature; breakpoint for permeable compounds Pe ≥ 1.5 × 10^−6 cm/s

Structure (SMILES): CCn1cc(C(=O)O)c(=O)c2cc(F)c(N3CCNCC3)cc21 [NFX, norfloxacin]
- Pe (permeability coefficient) ± SD: 0.56 ± 0.1 10^−6 cm/s
